In publication PMC6426815:

Key:
[1] = biological target: ribosomal protein S6 (human (endogenous in brain tissue)) (UniProt P62753); assay: co-IP; S6 immunoprecipitated from human control and late AD brain lysate, tau detected by blot; lysate without antibody as beads only lanes; n = 3
[2] = biological target: tau (human (endogenous in brain tissue)) (UniProt P10636); assay: co-IP; total tau (Tau 5 antibody) immunoprecipitated from human control and late AD brain lysate, S6 detected by blot; lysate without antibody as beads only lanes; n = 3

fold increase of tau co-precipitated with S6, late AD relative to control [1] [fold] | percent reduction of S6 co-precipitated with tau, late AD compared to control [2] [%] | Substance
2 | – | tau (from UniProt P10636-8 1-441) (natural protein; other documents disagree on this pair)
– | 60 | ribosomal protein S6 (from UniProt P62753 1-249) (natural protein; other documents disagree on this pair)
